Laboratory results as given in patent US20250041438A1 (NOVELTY NOBILITY, published 2025).

Chains of the proteins cited; added tags and fusions are not shown. A line that says so, or that is headed by a name, gives the form on record, which may keep a tag or linker.
UniProt P10721, other isoform, or with tags, fused parts or gaps limits assumed: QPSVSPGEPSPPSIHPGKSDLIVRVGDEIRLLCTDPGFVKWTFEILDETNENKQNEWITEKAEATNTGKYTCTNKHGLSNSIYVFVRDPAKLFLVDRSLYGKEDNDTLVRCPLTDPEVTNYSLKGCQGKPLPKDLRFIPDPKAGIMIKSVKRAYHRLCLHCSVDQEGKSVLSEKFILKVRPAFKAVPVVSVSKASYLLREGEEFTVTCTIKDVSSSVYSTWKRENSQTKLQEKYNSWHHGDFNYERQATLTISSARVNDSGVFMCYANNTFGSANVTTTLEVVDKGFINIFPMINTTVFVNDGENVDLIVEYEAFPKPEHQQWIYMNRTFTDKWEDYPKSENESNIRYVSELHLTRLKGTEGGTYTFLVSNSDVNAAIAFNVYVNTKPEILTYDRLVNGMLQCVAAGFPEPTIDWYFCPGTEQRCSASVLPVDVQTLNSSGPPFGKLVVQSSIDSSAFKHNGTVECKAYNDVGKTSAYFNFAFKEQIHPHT

Target: T1, human c-Kit (elabscience, PKSH030939) (human, UniProt P10721-2 26-516, limits assumed)
T1 construct: Bought recombinant protein, used as immunogen, ELISA coat and SPR ligand; also called recombinant c-Kit protein (cat #PKSH030939); c-KIT protein
Assay: SPR (Reichert SR7500DC), c-Kit immobilized on PEG chip, antibody flowed

Kd: ~2.82 pM
B1: 2G4 antibody (antibody, V domains shown)
VH: QVQLVESGGGVVQPGRSLRLSCAASGFTFSRYGMHWVRQAPGKGLEWVAVIWYDGTNKDYTDSVRGRFTISRDNSKNTLYLQMNSLRAEDTAVYYCAREDWAEAFDMWGQGTTVTVSS
VL: not shown
notes: also called mAb 2G4; anti-c-Kit antibody 2G4
